One assay concerns the target T1, BKB1 receptor (Oryctolagus cuniculus, UniProt P48748).
T1 construct: The rabbit aorta without endothelium (which contains only the BKB1 receptor); from tissue; host or cells: isolated rabbit aorta (rbA) without endothelium
T1 sequence (P48748 1-352): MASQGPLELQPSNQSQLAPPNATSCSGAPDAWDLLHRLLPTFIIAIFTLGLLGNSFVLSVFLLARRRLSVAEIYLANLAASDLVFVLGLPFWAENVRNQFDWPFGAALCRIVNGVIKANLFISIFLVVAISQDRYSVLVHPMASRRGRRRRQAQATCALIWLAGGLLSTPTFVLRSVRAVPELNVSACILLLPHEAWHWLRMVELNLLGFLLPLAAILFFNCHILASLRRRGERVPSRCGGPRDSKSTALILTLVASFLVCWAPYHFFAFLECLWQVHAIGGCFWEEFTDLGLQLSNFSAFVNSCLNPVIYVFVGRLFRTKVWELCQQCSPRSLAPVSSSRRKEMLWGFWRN
As to the kind of experiment: Isolated rabbit aorta (rbA) organ bath, antagonist potency pA2. The class given is cell-based. On the procedure: (§1) Selected antagonists were tested for activities in three isolated organs: (1) the rabbit aorta (rbA), (2) the human umbilical vein (hUV) and (3) the rabbit jugular vein (rbJV).
(§2) All details regarding the procurements of human umbilical cords and rabbit vessels as well as, the procedures for preparing the isolated organs and the experimental protocols are described in these respective publications: rbA (Rioux et al. 1973, Can J Physiol Pharmacol 51, 114–121); hUV (Gobeil et al. 1996, Br J Pharmacol 118, 289–294), and rbJV (Gaudreau et al. 1981, Can J Physiol Pharmacol 59, 371–379).
The rabbit aorta without endothelium (which contains only the BKB1 receptor) was used to determine the antagonistic activities of each compound.
The rabbit jugular vein (a pure BKB2 receptor system) was used to exclude any action of the new compounds on the BKB2 receptor and thus establish their selectivity. All tissues were treated with captopril (1 μM) to prevent the degradation of the peptidic agonists. […]

The chains behind the UniProt entries cited, without tags or fusion partners.
UniProt Q28642, whole entry: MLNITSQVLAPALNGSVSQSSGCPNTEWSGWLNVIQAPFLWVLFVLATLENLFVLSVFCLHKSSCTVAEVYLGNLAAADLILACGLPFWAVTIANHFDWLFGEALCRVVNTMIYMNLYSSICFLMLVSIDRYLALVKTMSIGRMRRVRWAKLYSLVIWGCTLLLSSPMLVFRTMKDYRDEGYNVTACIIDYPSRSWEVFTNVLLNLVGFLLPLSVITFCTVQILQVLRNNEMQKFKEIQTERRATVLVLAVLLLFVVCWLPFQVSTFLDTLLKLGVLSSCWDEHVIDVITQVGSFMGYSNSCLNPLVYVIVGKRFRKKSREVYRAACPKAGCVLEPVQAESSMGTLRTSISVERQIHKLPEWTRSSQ

In the next assay the target is T2, BKB2 receptor (Oryctolagus cuniculus, UniProt Q28642).
T2 construct: The rabbit jugular vein (a pure BKB2 receptor system); from tissue; host or cells: isolated rabbit jugular vein (rbJV)
As to the kind of experiment: Isolated rabbit jugular vein (rbJV) organ bath, antagonist potency pA2. The class given is cell-based. On the procedure: as §1, §2
The rabbit jugular vein (a pure BKB2 receptor system) was used to exclude any action of the new compounds on the BKB2 receptor and thus establish their selectivity. All tissues were treated with captopril (1 μM) to prevent the degradation of the peptidic agonists.
Repeated applications of a single and double concentration of BK (on rbJV,) or of desArg^9BK (rbA and hUV) were made in the absence and in presence of the various peptides to evaluate their apparent affinities as antagonists, in terms of pA2 (-log10 of the molar concentration of antagonist that reduces the effect of a double concentration of agonist to that of a single one) (Schild 1947, Br J Pharmacol 2, 189–206). […]

One may read the Kb as the equilibrium dissociation constant of an antagonist, usually derived from a functional assay. A high value points to a less potent antagonist. On to `CC(C)C[C@H](NC(=O)[C@@H]1CCCN1C(=O)[C@H](CO)NC(=O)[C@H](Cc1ccccc1)NC(=O)CNC(=O)[C@@H]1CCCN1C(=O)[C@@H]1CCCN1C(=O)[C@H](CCCN=C(N)N)NC(=O)[C@@H](N)CCCCN)C(=O)O` [Lys-[Leu^8]desArg^9-BK, Lys-[Leu^8] desArg^9BK], for which the Kb at BKB1 receptor is 5.37 nM; on BKB2 receptor, greater than 1000 nM.
